Measured values published in PubChem BioAssay AID1216 (Sanford-Burnham Center for Chemical Genomics, 2008).
This is a selection; strong and weak results do not stand in their true shares. Some tests of the compounds listed are not included; inactive here does not mean inactive elsewhere. The source made the active and inactive calls.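 Rule for the calls: active = activation factor of 2 or more at 20 µM; inactive = the rest.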

The chains behind the UniProt entries cited, without tags or fusion partners.
UniProt P34949, whole entry: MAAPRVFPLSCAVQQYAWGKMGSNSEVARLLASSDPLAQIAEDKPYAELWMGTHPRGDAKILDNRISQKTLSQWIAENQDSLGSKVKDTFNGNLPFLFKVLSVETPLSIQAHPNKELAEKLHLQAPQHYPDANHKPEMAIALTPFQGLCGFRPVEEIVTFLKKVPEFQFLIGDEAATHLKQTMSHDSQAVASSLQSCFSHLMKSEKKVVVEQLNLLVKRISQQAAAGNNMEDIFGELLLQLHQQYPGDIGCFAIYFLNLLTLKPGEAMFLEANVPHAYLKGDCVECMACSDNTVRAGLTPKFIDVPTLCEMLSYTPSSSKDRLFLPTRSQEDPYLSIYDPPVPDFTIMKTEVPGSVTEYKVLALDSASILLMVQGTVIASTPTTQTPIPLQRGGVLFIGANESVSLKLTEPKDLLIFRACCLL

target: Mannose-6-phosphate isomerase (Homo sapiens) (UniProt P34949); test: human PMI activators, high substrate, primary screen, biochemical, fluorescence intensity, near-saturating mannose 6-phosphate (AID 1216); conditions: coupled PMI enzyme assay, resazurin fluorescence, 20 min; at 20 µM; active compounds read high; 1 = untreated enzyme, 0 = substrate-free blank
Method in brief: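 Test system: human PMI in coupled enzyme assay; Input: PMI at 15 ng/mL final; Medium: HEPES buffer, pH 7.4; Schedule: 20 min incubation at room temperature; Technique: resorufin fluorescence at Ex 544/Em 590 nm; Compound: 20 µM single dose; Probe or stimulus: Near-saturating mannose-6-phosphate, 1.0 mM.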

Compound	activation factor
COc1cccc(C(=O)NCC2(N3CCCCC3)CCCCC2)c1	inactive: 0.9
CN(C)c1cccc(C(=O)NCC2(N(C)C)CCCCC2)c1	inactive: 0.9
O=C(OC1CN2CCC1CC2)C(CO)(c1ccccc1)c1ccccc1 (centres undefined)	inactive: 1
CC(C)N1C(=O)CC2(CCN(CCOC(=O)C(O)(c3ccccc3)c3ccccc3)CC2)C1=O	inactive: 1.1
O=C(NCC1(N2CCCCC2)CCCCC1)c1cc([N+](=O)[O-])ccc1Cl	inactive: 1.1
CCN1CCCC(OC(=O)C2(O)c3ccccc3C=Cc3ccccc32)C1 (centres undefined)	inactive: 1
C=CCN1CCN(CCOC(=O)C(O)(c2ccccc2)c2ccccc2)CC1	inactive: 1.1
Cc1ccccc1C(=O)NCC1(N2CCCCC2)CCCCC1	inactive: 1
CN(C)C1CCCC1OC(=O)C(O)(c1ccccc1)c1ccccc1 (centres undefined)	inactive: 1.1
